Patent US11608341B2, “Substituted tetrahydropyrazolo[3,4-d]pyrimidines and tetrahydropyrazolo[4,3-d]pyrimidines as C5A receptor modulators” (Idorsia Pharmaceuticals Ltd., priority 2018, dated 2023)

By UniProt entry, the sequences of proteins in these tests, tags left out.
UniProt P21730, whole entry: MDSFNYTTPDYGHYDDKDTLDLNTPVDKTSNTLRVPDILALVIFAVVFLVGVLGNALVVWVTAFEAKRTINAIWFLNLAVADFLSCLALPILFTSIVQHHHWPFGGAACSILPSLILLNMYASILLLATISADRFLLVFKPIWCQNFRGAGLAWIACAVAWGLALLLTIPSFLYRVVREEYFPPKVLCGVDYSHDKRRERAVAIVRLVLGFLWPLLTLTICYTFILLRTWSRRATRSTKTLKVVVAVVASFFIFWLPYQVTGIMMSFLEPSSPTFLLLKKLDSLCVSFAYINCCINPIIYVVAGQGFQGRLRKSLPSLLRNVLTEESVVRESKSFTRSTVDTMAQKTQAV

Molecular target: C5AR1 (Homo sapiens, UniProt P21730)
Assay: In vitro assay: antagonism of C5a-induced beta-arrestin recruitment (PathHunter) in CHO-K1 C5AR1 beta-arrestin cell line
Details: read-out: C5aR IC50, antagonistic activity, 1-10 nM C5a agonist, geometric mean where several measurements

| SMILES | IC50 [µM] |
| --- | --- |
| Cc1cccc(F)c1N1CCC(N2Cc3c[nH]nc3N(Cc3ccccc3C(F)(F)F)C2=O)CC1 | 0.009 |
| Cc1cccc(F)c1N1CCC(N2Cc3nn(C)cc3N(Cc3ccccc3C(F)(F)F)C2=O)CC1 | 0.036 |
| [2H]C([2H])([2H])n1cc2c(n1)N(Cc1ccccc1C(F)(F)F)C(=O)N(C1CCN(c3c(C)cccc3F)CC1)C2 | 0.008 |
| Cn1cc2c(n1)N(Cc1ccccc1C1CC1)C(=O)N(C1CCN(c3c(F)cccc3C#N)CC1)C2 | 0.018 |
| Cc1cccc(F)c1N1CCC(N2Cc3nn(C)cc3N(Cc3nccnc3C(F)(F)F)C2=O)CC1 | 0.603 |
| COc1nccc(C(F)F)c1N1CCC(N2C(=O)N(Cc3ccccc3C3CC3)c3nn(C)cc3C2C)CC1 (single isomer, unassigned) | 0.01 |
| Cc1cccc(F)c1N1CCC(N2Cc3nn(C)cc3N(Cc3cnccc3C(F)(F)F)C2=O)CC1 | 0.226 |
| Cc1cccc(F)c1N1CCC(N2Cc3[nH]cnc3N(Cc3ccccc3C(F)(F)F)C2=O)CC1 | 0.466 |
| Cc1cccc(F)c1N1CCC(N2Cc3cn(COCC[Si](C)(C)C)nc3N(Cc3ccccc3C(F)(F)F)C2=O)CC1 | 0.016 |
| CC1c2cn(C3CC3)nc2N(Cc2ccccc2C2CC2)C(=O)N1C1CCN(c2c(F)cccc2Cl)CC1 (single isomer, unassigned) | 0.015 |
| Cc1cccc(F)c1N1CCC(N2Cc3c(cnn3COCC[Si](C)(C)C)N(Cc3ccccc3C(F)(F)F)C2=O)CC1 | 0.085 |
| [2H]c1ccc(C(F)(F)F)c(CN2C(=O)N(C3CCN(c4c(C)cccc4F)CC3)Cc3cn(C)nc32)n1 | 0.016 |
| Cc1cccc(F)c1N1CCC(N2Cc3c(ncn3COCC[Si](C)(C)C)N(Cc3ccccc3C(F)(F)F)C2=O)CC1 | 0.028 |
| Cc1cccc(F)c1N1CCC(N2Cc3n[nH]nc3N(Cc3ccccc3C(F)(F)F)C2=O)CC1 | 0.02 |
| Cc1cccc(F)c1N1CCC(N2Cc3cn(C4CC4)nc3N(Cc3ncccc3C(F)(F)F)C2=O)CC1 | 0.003 |
| Cc1cccc(F)c1N1CCC(N2Cc3c(cnn3C)N(Cc3ccccc3C(F)(F)F)C2=O)CC1 | 0.293 |

Results, then the molecule that gave them:

| IC50 [µM] | SMILES |
| --- | --- |
| 0.01 | Cc1cccc(F)c1N1CCC(N2Cc3[nH]ncc3N(Cc3ccccc3C(F)(F)F)C2=O)CC1 |
| 0.008 | COc1nccc(C)c1N1CCC(N2C(=O)N(Cc3ccccc3C3CC3)c3nn(C)cc3C2C)CC1 (single isomer, unassigned) |
| 0.006 | [2H]C([2H])([2H])C([2H])([2H])n1cc2c(n1)N(Cc1ccccc1C(F)(F)F)C(=O)N(C1CCN(c3c(C)cccc3F)CC1)C2 |
| 0.182 | C[C@@H]1c2cn(C)nc2N(Cc2ccccc2C2CC2)C(=O)N1C1CCN(c2c(F)cccc2C(F)F)CC1 |
| 0.014 | CC1c2cn(C)nc2N(Cc2ccccc2C(F)(F)F)C(=O)N1C1CCN(c2c(F)cccc2C2CC2)CC1 (single isomer, unassigned) |
| 0.354 | Cc1cccc(F)c1N1CCC(N2Cc3cn(CC4CCCN4)nc3N(Cc3ccccc3C(F)(F)F)C2=O)CC1 (stereo not drawn) |
| 0.009 | [2H]C([2H])([2H])C([2H])(n1cc2c(n1)N(Cc1ccccc1C(F)(F)F)C(=O)N(C1CCN(c3c(C)cccc3F)CC1)C2)C([2H])([2H])[2H] |
| 0.01 | [2H]C([2H])([2H])C([2H])(C([2H])([2H])[2H])C([2H])([2H])n1cc2c(n1)N(Cc1ccccc1C(F)(F)F)C(=O)N(C1CCN(c3c(C)cccc3F)CC1)C2 |
| 0.01 | [2H]C([2H])([2H])C(n1cc2c(n1)N(Cc1ccccc1C(F)(F)F)C(=O)N(C1CCN(c3c(C)cccc3F)CC1)C2)C([2H])([2H])[2H] |
| 0.024 | Cc1cccc(F)c1N1CCC(N2Cc3cn(C4CCCC4NC(=O)OC(C)(C)C)nc3N(Cc3ccccc3C(F)(F)F)C2=O)CC1 (stereo not drawn) |
| 0.009 | C[C@H]1c2cn(C)nc2N(Cc2ccccc2C2CC2)C(=O)N1C1CCN(c2c(F)cccc2C(F)F)CC1 |
| 0.084 | COc1nccc(C(F)F)c1N1CCC(N2C(=O)N(Cc3ccccc3C3CC3)c3nn(C4CCCCO4)cc3C2C)CC1 (stereo not drawn) |
| 0.016 | CCOCn1cc2c(n1)N(Cc1ccccc1C(F)(F)F)C(=O)N(C1CCN(c3c(C)cccc3F)CC1)C2 |
| 0.341 | Cc1cccc(F)c1N1CCC(N2Cc3cnn(C)c3N(Cc3ccccc3C(F)(F)F)C2=O)CC1 |
